Binding of CDR-mutated scFvs to a peptide of the spike HR2 region

Source: Engelhart et al. 2022 (doi:10.1038/s41597-022-01779-4), MIT Lincoln Laboratory and A-Alpha Bio; data file from the FLAb repository.

Target: peptide PDVDLGDISGINAS, taken from heptad repeat 2 (HR2) of SARS-CoV-2 spike.

The variants keep the light chain, the linker and the frameworks of Ab-91 (scFv order VL, a 15-residue (Gly4Ser)3 linker, VH).
VL: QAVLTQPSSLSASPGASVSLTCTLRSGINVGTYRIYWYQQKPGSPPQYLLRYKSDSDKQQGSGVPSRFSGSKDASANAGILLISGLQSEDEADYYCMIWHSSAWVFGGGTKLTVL
VH: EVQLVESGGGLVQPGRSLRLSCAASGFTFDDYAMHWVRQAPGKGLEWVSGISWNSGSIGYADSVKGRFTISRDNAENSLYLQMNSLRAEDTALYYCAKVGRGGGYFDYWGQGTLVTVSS

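The parent was found by panning a naive human phage display library on the peptide. Library AAYL51 holds single substitutions and randomly drawn double and triple substitutions in the CDRs. In AlphaSeq, yeast of one mating type display the scFv and yeast of the other type display the target. The frequency of each diploid, read from paired DNA barcodes, reflects how well the two displayed proteins bind. The ratio of observed to expected reads was calibrated, replicate by replicate, on BCL2-family standards whose Kd was known from biolayer interferometry. The assay was run in three technical replicates.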

Positions count from residue 1 of the parent VH; I58W puts W in place of I.
Values are log10 of the apparent Kd in nM; lower means stronger binding.
A mean of the replicates is given; it leaves out those without a signal.
Where no diploid with the target was found in that replicate, the entry reads "n.d.": below detection, most likely a poor binder, though not proof of it.
As a blank, each scFv also met three strains without target: over library AAYL51, 21% of these pairings were detected, typically at 4.54 and seldom below 3.26. For each scFv, signals with the empty controls are counted beside the result, with their mean in brackets.

| changes | replicates, log10 nM | mean log10 Kd (nM) | signal with controls |
|---|---|---|---|
| I58W+V64Y+Y105W | 6.14 n.d. n.d. | 6.14 | 6 of 9 (4.49) |
| A61L+R101M+G104N | n.d. n.d. n.d. | n.d. | 1 of 9 (4.17) |
| H35D+D62T+R101E | n.d. 4.77 n.d. | 4.77 | 4 of 9 (5.21) |
| I51H+G56I+D62Q | 3.68 5.91 n.d. | 4.80 | 2 of 9 (3.74) |
| N54D+G59E+Y60A | n.d. n.d. n.d. | n.d. | 1 of 9 (4.82) |
| S57F+G59Q+G103F | n.d. 5.05 4.13 | 4.59 | 0 of 9 |
| A33G+S52C+D62P | 5.36 n.d. n.d. | 5.36 | 1 of 9 (4.05) |
| Y32D+G56H+R101T | 5.40 4.86 n.d. | 5.13 | 1 of 9 (4.93) |
| H35E+N54F | n.d. n.d. n.d. | n.d. | 0 of 9 |
| F27A+I58M+S63D | n.d. n.d. n.d. | n.d. | 0 of 9 |
| Y32N+S55K+D62E | 4.39 6.82 5.29 | 5.50 | 5 of 9 (4.24) |
| T28G+D30Q+S63Y | 1.24 1.11 0.66 | 1.00 | 3 of 9 (4.53) |
| F27E+G100R+G104D | 5.75 4.72 5.67 | 5.38 | 5 of 9 (4.47) |
| F29K+A33L+W53N | 3.15 3.60 n.d. | 3.37 | 2 of 9 (3.54) |
| D31F+G56P+G102I | n.d. 4.55 n.d. | 4.55 | 1 of 9 (2.70) |
| G26S+D62S+G104T | n.d. n.d. n.d. | n.d. | 0 of 9 |
| A33H+G50C+G56R | n.d. n.d. n.d. | n.d. | 0 of 9 |
| M34L+G103I | 4.86 4.82 4.67 | 4.78 | 3 of 9 (4.60) |
| H35Y+A61Q+V64T | n.d. n.d. n.d. | n.d. | 0 of 9 |
| G59N+A61D+K65Y | 4.66 5.01 4.90 | 4.86 | 1 of 9 (4.31) |
| F29G+G56L+G100N | 4.44 n.d. n.d. | 4.44 | 0 of 9 |
| M34R+V99T+G100Q | n.d. 4.34 n.d. | 4.34 | 2 of 9 (3.33) |
| D31K+A33S+Y105C | 0.90 0.94 0.40 | 0.75 | 6 of 9 (4.63) |
| F29P+S55C+G59W | 5.13 n.d. n.d. | 5.13 | 3 of 9 (4.40) |
| F29W+D30E+D107R | n.d. n.d. n.d. | n.d. | 0 of 9 |
| F27R+G103H+Y105T | 5.01 4.50 n.d. | 4.76 | 4 of 9 (5.09) |
| G26P+G56E+K65Y | 5.34 4.23 4.82 | 4.80 | 6 of 9 (4.54) |
| G50R+G56P+Y60Q | n.d. n.d. n.d. | n.d. | 1 of 9 (3.06) |
| G56P+V99L+Y105T | 5.14 n.d. n.d. | 5.14 | 1 of 9 (4.99) |
| Y32T+N54K+D107G | 4.77 5.12 n.d. | 4.94 | 5 of 9 (5.01) |
| G56S+D62Q+G102W | n.d. 4.02 4.96 | 4.49 | 3 of 9 (4.66) |
| G56L+G100V+Y105H | n.d. n.d. 3.99 | 3.99 | 0 of 9 |
| Y32E+I58T | n.d. n.d. n.d. | n.d. | 2 of 9 (3.97) |
| F29A+G103F+Y105E | n.d. n.d. n.d. | n.d. | 1 of 9 (4.60) |
| F29I+N54C | n.d. n.d. n.d. | n.d. | 2 of 9 (4.03) |
| F27M+G59V+G104A | n.d. n.d. n.d. | n.d. | 3 of 9 (4.10) |
| Y32W+N54A+A61C | n.d. n.d. n.d. | n.d. | 0 of 9 |
| M34I+S52W+G102W | 5.29 n.d. n.d. | 5.29 | 0 of 9 |

The opening 3 entries, copied out:

| changes | replicates, log10 nM | mean log10 Kd (nM) | signal with controls |
|---|---|---|---|
| I58W+V64Y+Y105W | 6.14 n.d. n.d. | 6.14 | 6 of 9 (4.49) |
| A61L+R101M+G104N | n.d. n.d. n.d. | n.d. | 1 of 9 (4.17) |
| H35D+D62T+R101E | n.d. 4.77 n.d. | 4.77 | 4 of 9 (5.21) |